# Test results taken from article PMC4411898, “Impact of kinesin Eg5 inhibition by 3,4-dihydropyrimidin-2(1H)-one derivatives on various breast cancer cell features” (BMC Cancer, 2015).
# How the values were obtained:
# MCF-7 cells = assay: CFSE proliferation assay, MCF-7; type: cell-based, human; conditions: 72 h, IC50 concentration of each compound
# Method: (§1) For proliferation assays, cells were treated with IC50 concentrations of each compound. Adherent and floating cells were harvested at the same tube and pelleted by centrifugation at 300 g for 5 minutes and stained. Data acquisition of these two fractions put together was performed on a FACSCalibur flow cytometer using CellQuest software and analysed using the FloJo Software. […] After adhesion, cells were treated with DHPMs or maintained in culture medium only (control) for 72 h. The percentage of proliferative cells was calculated based on the CFSE fluorescence profile analysis of the tested samples compared to that of the fixed undivided control cells (treated with 10 μM of colchicine) using the FlowJo software.
# MDA-MB-231 cells = assay: CFSE proliferation assay, MDA-MB-231; type: cell-based, human; conditions: 72 h, IC50 concentration of each compound
# Method: as §1
smiles,measurement,setting,value
"CC1(C)CC(=O)C2=C(C1)NC(=S)NC2c1cccc(O)c1 (centres unmarked) [Compound 4bt, Dimethylenastron]","Inhibition of cell proliferation, MCF-7",MCF-7 cells,Approximately 50%
same,"Inhibition of cell proliferation, MDA-MB-231",MDA-MB-231 cells,Approximately 50%
